Experimental data taken from paper PMC12582335.

Target: T1, recombinant collectin-11 (rCL-11), CHO-expressed (human), Q9BWP8
T1 chain: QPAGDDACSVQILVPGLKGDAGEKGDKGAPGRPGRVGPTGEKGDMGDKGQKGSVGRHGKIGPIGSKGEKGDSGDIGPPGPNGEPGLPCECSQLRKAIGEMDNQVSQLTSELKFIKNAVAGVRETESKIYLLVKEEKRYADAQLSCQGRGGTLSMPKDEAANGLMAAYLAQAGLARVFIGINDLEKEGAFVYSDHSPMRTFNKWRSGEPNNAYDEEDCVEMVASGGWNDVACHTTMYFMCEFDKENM
Test: SDS-PAGE; molecular mass of rCL-11 on SDS gels, 105 kDa, taken as a trimer of polypeptides
Conditions: remark: other sources report otherwise

B1: recombinant collectin-11 (rCL-11), CHO-expressed, Q9BWP8 26-271 (natural protein)
chain: QPAGDDACSVQILVPGLKGDAGEKGDKGAPGRPGRVGPTGEKGDMGDKGQKGSVGRHGKIGPIGSKGEKGDSGDIGPPGPNGEPGLPCECSQLRKAIGEMDNQVSQLTSELKFIKNAVAGVRETESKIYLLVKEEKRYADAQLSCQGRGGTLSMPKDEAANGLMAAYLAQAGLARVFIGINDLEKEGAFVYSDHSPMRTFNKWRSGEPNNAYDEEDCVEMVASGGWNDVACHTTMYFMCEFDKENM
- stoichiometry N: 3
